pKi: −log10 of the molar value.
Legend:
[1] = target: T1, Orexin/Hypocretin receptor type 1 (Homo sapiens, UniProt O43613); test: Displacement of [3H](S)-N-(biphenyl-2-yl)-1-(2-(1-methyl-1H-benzo[d]imidazol-2-ylthio)acetyl)pyrrolidine-2-carboxamide from human OX1R expressed in CHO cells after 3 hrs by scintillation counting; type: cell-based
[2] = target: T1, Orexin/Hypocretin receptor type 1; test: Displacement of [3H]N-cyclobutyl-5-methyl-N-(2-(1-methyl-1H-benzo[d]imidazol-2-ylthio)ethyl)-2-(2H-1,2,3-triazol-2-yl)benzamide from human OX1R expressed in CHO cells after 20 hrs by scintillation counting; type: cell-based

Sequences of proteins named here, by UniProt entry; tags and fusion partners are left off.
UniProt O43613, whole entry: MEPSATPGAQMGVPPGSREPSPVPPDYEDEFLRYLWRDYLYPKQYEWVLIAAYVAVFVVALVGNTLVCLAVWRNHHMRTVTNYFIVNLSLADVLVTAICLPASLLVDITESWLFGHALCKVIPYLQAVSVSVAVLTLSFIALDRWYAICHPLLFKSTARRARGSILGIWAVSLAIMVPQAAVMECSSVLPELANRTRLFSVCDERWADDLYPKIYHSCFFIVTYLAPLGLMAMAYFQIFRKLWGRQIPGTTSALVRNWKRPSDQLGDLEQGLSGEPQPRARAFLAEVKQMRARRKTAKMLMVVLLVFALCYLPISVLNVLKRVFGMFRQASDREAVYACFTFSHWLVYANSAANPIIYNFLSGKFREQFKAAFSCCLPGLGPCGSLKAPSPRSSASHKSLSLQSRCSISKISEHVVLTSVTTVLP

`Cc1ccc(-n2nccn2)c(C(=O)N2CCN(c3nc4cc(Cl)ccc4o3)CC[C@H]2C)c1` [SUVOREXANT] showed a pKi [1] of 9.26 and a pKi [2] of 9.26.
